Experimental data from patent US20230091225A1, “Bifunctional chimeric heterocyclic compounds for targeted degradation of androgen receptors and use thereof” (HINOVA PHARMACEUTICALS INC., priority 2019, published 2023).

Amino acid sequences for entries named in this document (tags omitted). A change or cut given only in a name is not applied to a line headed by its entry.
UniProt P10275: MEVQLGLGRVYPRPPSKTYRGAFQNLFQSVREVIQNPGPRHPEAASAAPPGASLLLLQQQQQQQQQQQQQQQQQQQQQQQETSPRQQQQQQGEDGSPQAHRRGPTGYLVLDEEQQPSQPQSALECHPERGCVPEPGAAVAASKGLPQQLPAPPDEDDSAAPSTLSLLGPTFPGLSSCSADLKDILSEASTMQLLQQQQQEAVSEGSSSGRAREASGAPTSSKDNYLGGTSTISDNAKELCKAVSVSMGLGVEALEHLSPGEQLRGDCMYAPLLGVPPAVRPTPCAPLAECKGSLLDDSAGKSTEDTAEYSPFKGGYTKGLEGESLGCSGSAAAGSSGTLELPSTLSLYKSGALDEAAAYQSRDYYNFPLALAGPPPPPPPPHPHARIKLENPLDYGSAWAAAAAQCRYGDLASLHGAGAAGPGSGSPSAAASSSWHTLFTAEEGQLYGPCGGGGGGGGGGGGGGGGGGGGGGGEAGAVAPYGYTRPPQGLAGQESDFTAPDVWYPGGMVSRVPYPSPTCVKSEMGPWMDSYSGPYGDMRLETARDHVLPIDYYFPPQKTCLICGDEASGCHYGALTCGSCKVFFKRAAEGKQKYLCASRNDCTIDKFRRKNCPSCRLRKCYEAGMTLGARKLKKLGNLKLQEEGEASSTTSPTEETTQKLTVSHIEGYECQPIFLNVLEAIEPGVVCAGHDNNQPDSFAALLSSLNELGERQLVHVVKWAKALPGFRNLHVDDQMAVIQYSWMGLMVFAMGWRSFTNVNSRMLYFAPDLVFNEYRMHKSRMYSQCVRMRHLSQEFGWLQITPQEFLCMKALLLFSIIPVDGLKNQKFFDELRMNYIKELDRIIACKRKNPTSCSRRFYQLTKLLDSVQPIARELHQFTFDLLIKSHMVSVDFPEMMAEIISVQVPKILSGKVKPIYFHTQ

Tests used:
[1] = biological target: T1, androgen receptor (AR) (Homo sapiens, UniProt P10275); test: Degradation of androgen receptor (AR) protein in VCaP cells by ELISA; assay type: cell-based
[2] = biological target: T1, androgen receptor (AR); test: Degradation of androgen receptor (AR) protein in VCaP cells by Western blot; assay type: cell-based; conditions: percentage of degraded AR at 100 nM, 16 h
Procedure: Determination of the Degradation Activity of the Compound on Androgen Receptor (AR) Protein by Western Blot
1) VCaP cells were subcultured in cell culture media, and then the cells in good growth condition were seeded in a 12-well plate at 1 ml/well (5×10^5 cells/well), and cultured overnight in a 37° C., 5% CO2 cell incubator. 2) The test compound was prepared into a 10 mM stock solution with dimethyl sulfoxide (DMSO). Prior to use, the solution was diluted 3 times with DMSO. […] of the diluted compound solution was added to the cell culture well (ensuring that the DMSO concentration in the culture system was 0.1%), and two wells were set for each concentration. The plate was gently shaken to mix. In addition, the experiment included negative control wells (containing equal amount of DMSO) and positive control wells. 3) After culturing 16 h. the cells were lysed with RIPA cell lysate, and the protein was extracted. The protein concentration was measured with BCA kit. 5-fold concentrated protein loading buffer was added, and after heated at 100° C. for 5 min. the sample was stored at −20° C. 4) for each well, 30 μg of protein was loaded on polyacrylamide gel for electrophoresis. 5) The protein was transferred from polyacrylamide gel to PVDF membrane, and then 5% skim milk was added to close for 1 h at room temperature. […]

Substance | DC50 [1] [µM] | Dmax (%) [1] | % degradation [2]
2-chloro-4-((1r,3r)-3-(2-(4-((2-(2,6-dioxopiperidin-3-yl)-6-fluoro-1,3-dioxoisoindolin-5-yl)-2,7-diazaspiro[3.5]nonane-7-yl)methyl)piperidin-1-yl)-5-oxo-5,7-dihydro-6H-pyrrolo[3,4-b]pyridin-6-yl)-2,2,4,4-tetramethylcyclobutoxy) benzonitrile [Compound 90] | 0.01 to 0.1 | +++ (key: ++++: >80%; +++: 80%-60%; ++: 60%-40%; +: <40%) | 
2-chloro-4-((1r,4r)-4-(2-(4-((4-(3-(2,6-dioxopiperidin-3-yl)-2-methyl-4-oxo-3,4-dihydroquinazoline-7-yl)piperazin-1-yl)methyl)piperidin-1-yl)-5-oxo-5H-pyrrolo[3,4-b]pyridin-6(7H)-yl)cyclohexyl)oxy)benzonitrile [Compound 309] |  |  | C (49%-25%)
